{
  "sequences": {"note": "Protein sequences, listed by entry. Tags and fused reporters are not part of them. Lines headed by an entry give the natural chain unless they say otherwise; changes in a name come on top.", "UniProt P28335": "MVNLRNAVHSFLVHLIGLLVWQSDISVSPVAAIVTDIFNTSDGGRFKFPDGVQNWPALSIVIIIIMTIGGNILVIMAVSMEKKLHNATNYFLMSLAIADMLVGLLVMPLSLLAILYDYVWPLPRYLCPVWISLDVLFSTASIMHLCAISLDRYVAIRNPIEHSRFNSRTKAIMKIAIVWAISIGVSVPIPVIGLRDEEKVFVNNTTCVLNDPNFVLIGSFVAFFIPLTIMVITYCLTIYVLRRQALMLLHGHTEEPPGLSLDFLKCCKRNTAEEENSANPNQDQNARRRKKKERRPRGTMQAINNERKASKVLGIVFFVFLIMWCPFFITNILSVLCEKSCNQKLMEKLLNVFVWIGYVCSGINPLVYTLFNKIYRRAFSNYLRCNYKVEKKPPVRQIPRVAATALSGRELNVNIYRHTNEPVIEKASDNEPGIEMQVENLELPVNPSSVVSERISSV", "UniProt P28223, whole entry": "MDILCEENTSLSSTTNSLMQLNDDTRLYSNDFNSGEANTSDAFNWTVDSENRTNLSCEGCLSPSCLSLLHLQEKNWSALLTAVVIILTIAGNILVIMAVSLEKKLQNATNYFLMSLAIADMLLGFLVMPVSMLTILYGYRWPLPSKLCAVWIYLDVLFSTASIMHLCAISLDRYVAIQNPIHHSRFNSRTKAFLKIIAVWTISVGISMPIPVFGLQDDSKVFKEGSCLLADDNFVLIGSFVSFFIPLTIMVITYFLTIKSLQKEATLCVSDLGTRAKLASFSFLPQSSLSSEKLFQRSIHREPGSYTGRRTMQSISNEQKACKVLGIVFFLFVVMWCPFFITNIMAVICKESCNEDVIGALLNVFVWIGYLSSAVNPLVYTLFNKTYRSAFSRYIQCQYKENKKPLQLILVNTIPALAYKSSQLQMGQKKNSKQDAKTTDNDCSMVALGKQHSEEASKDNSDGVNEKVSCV"},
  "source": "ChEMBL document CHEMBL1131637",
  "about": "“Novel and selective 5-HT2C/2B receptor antagonists as potential anxiolytic agents: synthesis, quantitative structure-activity relationships, and molecular modeling of substituted 1-(3-pyridylcarbamoyl)indolines” (J Med Chem, 1998)",
  "key": {"[1]": {"biological_target": "5-hydroxytryptamine receptor 2C (Homo sapiens, UniProt P28335)", "test": "Binding affinity towards cloned human 5-hydroxytryptamine 2C receptor expressed in HEK 293 cells using [3H]mesulergine as radioligand", "type": "cell-based, HEK293"}, "[2]": {"biological_target": "5-hydroxytryptamine receptor 2A (Homo sapiens, UniProt P28223)", "test": "Binding affinity towards human 5-hydroxytryptamine 2A receptor expressed in HEK 293 cells using [3H]ketanserin as radioligand", "type": "cell-based, HEK293", "how_it_was_run": "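Radioligand binding on human cloned receptors stably expressed in HEK 293 cells; 5-HT2A labelled with [3H]ketanserin, 5-HT2B with [3H]-5-HT. Values are means of at least two determinations, each within 0.2 log unit of the mean.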"}},
  "data": [
    {"smiles": "O=C(Nc1cccnc1)N1CCc2c1ccc(Cl)c2Cl", "values": [
      {"measurement": "Ki", "setting": "[1]", "result": 25.1, "unit": "nM"},
      {"measurement": "Ki", "setting": "[2]", "result": 631, "unit": "nM"}
    ]}
  ]
}
